Measured values from ChEMBL document CHEMBL3875218, “Bifunctional conjugates with potent inhibitory activity towards cyclooxygenase and histone deacetylase” (Bioorg Med Chem, 2017).

Experiment: Selectivity index, ratio of IC50 for sheep COX1 to IC50 for recombinant human COX2

Molecule `COC(=O)Cc1c(C)n(Cc2ccc(-c3cn(CCCCCCCC(=O)NO)nn3)cc2)c2ccc(OC)cc12` has a Ratio IC50 of over 2.
